Assay results taken from ChEMBL document CHEMBL4414557, “Labdanes, Withanolides, and Other Constituents from Physalis nicandroides” (J Nat Prod, 2019).

By UniProt entry, the sequences of proteins in these tests, tags left out. Where a name states a change or a piece, a line headed by the entry shows the natural chain unless it says otherwise.
UniProt O42275: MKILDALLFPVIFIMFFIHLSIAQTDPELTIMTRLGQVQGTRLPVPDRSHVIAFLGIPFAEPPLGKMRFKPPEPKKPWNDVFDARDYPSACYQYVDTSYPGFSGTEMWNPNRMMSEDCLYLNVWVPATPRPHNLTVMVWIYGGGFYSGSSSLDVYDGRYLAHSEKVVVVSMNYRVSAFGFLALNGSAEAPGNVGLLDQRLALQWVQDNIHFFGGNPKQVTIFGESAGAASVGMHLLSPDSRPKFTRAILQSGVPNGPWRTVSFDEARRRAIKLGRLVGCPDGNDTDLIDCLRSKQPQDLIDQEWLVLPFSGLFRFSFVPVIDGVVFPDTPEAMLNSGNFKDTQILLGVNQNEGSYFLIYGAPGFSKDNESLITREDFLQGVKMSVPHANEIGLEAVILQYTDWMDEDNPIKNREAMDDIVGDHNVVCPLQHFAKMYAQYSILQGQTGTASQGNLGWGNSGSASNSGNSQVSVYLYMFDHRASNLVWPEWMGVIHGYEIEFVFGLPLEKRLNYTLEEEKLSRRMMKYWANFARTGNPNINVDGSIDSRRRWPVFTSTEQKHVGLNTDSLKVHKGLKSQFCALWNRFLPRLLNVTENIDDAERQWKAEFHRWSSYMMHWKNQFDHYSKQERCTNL

Biological target: Acetylcholinesterase (Electrophorus electricus, UniProt O42275)
Test: Inhibition of Electrophorus electricus AChE using acetylthiocholine iodide as substrate preincubated for 30 mins followed by substrate addition and measured after 5 mins by Ellman's method

## CNC(=O)Oc1ccc2c(c1)[C@]1(C)CCN(C)[C@@H]1N2C [PHYSOSTIGMINE]
  IC50: 3 nM
